Bioassay records (PubChem BioAssay)
An excerpt weighted towards active compounds, which were near 1.8% of everything screened.
SIRT5 block – sirtuin-5 (human) deacylase inhibition | inhibition, % at 15 µM | actives 1.1% (n = 330,000) | Q9NXA8 | Purified SirT5, succinyl-peptide AMC, trypsin-coupled fluorescence | AID 652115; in the data active = inhibition above about 15%
MLL AF4-AF9 inh – blocks AF4 peptide binding to human AF9; AlphaScreen, biotin-AF4 peptide binding to FLAG-AF9; actives 0.47% (n = 350,000); AID 651704; P42568; inhibition, % at 10 µM;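 active = every replicate reaching a set inhibition limit, whatever the replicate mean, cut at about 25% in these data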
RAD52 inh – RAD52 (human) annealing inhibition; inhibition, % at 18.7 µM; recombinant RAD52 DNA annealing, FRET fluorescence; AID 651710; actives 0.46% (n = 360,000);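 active = every replicate showing at least 50% inhibition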
RAD54 inh – inhibitors of human RAD54 branch migration. Q92698. RAD54 Holliday junction branch migration, FAM/BHQ fluorescence. inhibition, % at 10.4 µM. actives 0.14% (n = 360,000). AID 602329;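 active = mean normalized replicate activity at least 40 and at least half of replicates scoring 40 or more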;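 note: inhibitors cause a drop in the FAM fluorescence signal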
UUG fidelity – yeast start codon fidelity modulation; activity score, % at 18.7 µM; actives 0.13% (n = 350,000); S. cerevisiae UUG-firefly luciferase reporter, luminescence/redox ratio; AID 602363;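 active means replicate mean at a twofold rise or more, about +100% in these data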;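 further: firefly luciferase made from a UUG start codon reports start codon fidelity; reporter light over untreated wells divided by growth signal over untreated wells; some hits fall short of that in this replicate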
E-sel inducer – E-selectin induction on HUVECs | P16581 | HUVEC E-selectin immunofluorescence imaging; normalized: neutral wells 0, TNF-alpha wells 100 | activation, % at 7.58 µM | actives 0.37% (n = 260,000) | AID 686992;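 active = mean E-selectin-positive cell signal at least 10% of the positive control, reached in at least 60% of replicates, without over 20% cell loss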
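Material: HUVEC primary endothelial cells; Amount: 3,000 cells per well; Dosing: single concentration; Medium: EGM-2 growth medium on 0.1% gelatin-coated wells; Read-out basis: percent E-selectin-positive cells; Signal: immunofluorescence imaging; Control set: TNF-alpha, DMSO.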
Each line names hits and unclear results; the compound was inactive in the other large screens.

C[C@@H]1CN([C@H](C)CO)C(=O)c2cc(NC(=O)CCC(F)(F)F)ccc2O[C@H]1CN(C)Cc1ccc(C(F)(F)F)cc1	none
C[C@H]1CN([C@@H](C)CO)C(=O)c2cc(NC(=O)CCC(F)(F)F)ccc2O[C@H]1CN(C)Cc1ccc(C(F)(F)F)cc1	SIRT5 block 20
C[C@@H]1CN([C@H](C)CO)C(=O)c2cc(NC(=O)CCC(F)(F)F)ccc2O[C@@H]1CN(C)Cc1ccc(C(F)(F)F)cc1	E-sel inducer 52
C[C@H](CO)N1C[C@H](C)[C@@H](CN(C)Cc2ccncc2)Oc2ccc(NC(=O)CCC(F)(F)F)cc2C1=O	none (no result: E-sel inducer)
C[C@H]1CN([C@@H](C)CO)C(=O)c2cc(NC(=O)CCCN(C)C)ccc2O[C@H]1CN(C)Cc1ccc(C(F)(F)F)cc1	E-sel inducer 42
O=C(C[C@H]1C[C@@H]2c3cc(NC(=O)Nc4ccc(F)cc4)ccc3O[C@@H]2[C@@H](CO)O1)NCC(F)(F)F	none
CC1NC(=O)NC1CCCCCC(=O)NCCc1ccccc1 (stereo unspecified)	MLL AF4-AF9 inh 77 (no result: E-sel inducer)
O=C(CCCCC(=O)NCCCc1ccccc1)NCCCc1ccccc1	none (no result: SIRT5 block, E-sel inducer)
O=C(COC(=O)CCC(=O)c1cccs1)NCc1ccccc1	none (no result: RAD54 inh, UUG fidelity, E-sel inducer)
Cc1ccc(CNC(=O)COC(=O)CCC(=O)c2cccs2)cc1	SIRT5 block 19 (no result: RAD54 inh, UUG fidelity)
COCC(=O)N1CC2(C1)CN(C(=O)Nc1ccccc1F)[C@@H](CO)c1c2c2ccc(OC)cc2n1C	none (no result: SIRT5 block, RAD52 inh, RAD54 inh, UUG fidelity)
CCCNC(=O)N(C)C[C@H]1Oc2cc(-c3cncnc3)ccc2S(=O)(=O)N([C@H](C)CO)C[C@@H]1C	none (no result: UUG fidelity)
Cn1nc(-c2ccc(Cl)cc2)nc2c(=O)n(C)c(=O)nc1-2	RAD54 inh 58 (no result: SIRT5 block, RAD52 inh, E-sel inducer)
CS(=O)(=O)n1nc(-c2ccc(Cl)cc2)nc1N	none (no result: RAD54 inh, UUG fidelity)
CCOc1ccccc1N(C)C(=O)c1cn(CC)c(=O)c2cc(OC)c(OC)cc12	SIRT5 block 20
CCn1cc(C(=O)N(C)c2ccccc2F)c2cc(OC)c(OC)cc2c1=O	none
C[C@@H]1CCCCO[C@H](CN(C)C(=O)c2ccncc2)[C@H](C)CN([C@H](C)CO)C(=O)c2cc(NC(=O)c3ccncc3)ccc2O1	none (no result: UUG fidelity)
C/C(=N\NC(=O)c1cc(-c2ccccc2C)nc2ccccc12)c1cccnc1	E-sel inducer 50
COc1ccccc1NC(=O)Nc1ccc2c(c1)C(=O)N(C)C[C@@H](OC)[C@H](C)CN(Cc1ccccc1Cl)[C@H](C)CO2	none (no result: UUG fidelity)
COc1ccccc1CN1C[C@@H](C)[C@H](OC)CN(C)C(=O)c2cc(NC(=O)Nc3ccccc3OC)ccc2OC[C@H]1C	RAD52 inh 52
COc1cccc(NC(=O)Nc2ccc3c(c2)C(=O)N(C)C[C@H](OC)[C@@H](C)CN(C)[C@H](C)CO3)c1	RAD52 inh 94 (no result: SIRT5 block, UUG fidelity)
COc1cccc(NC(=O)Nc2ccc3c(c2)C(=O)N(C)C[C@@H](OC)[C@@H](C)CN(C)[C@@H](C)CO3)c1	RAD52 inh 88 (no result: UUG fidelity, E-sel inducer)
COc1cccc(NC(=O)Nc2ccc3c(c2)C(=O)N(C)C[C@H](OC)[C@H](C)CN(C)[C@@H](C)CO3)c1	RAD52 inh 93 (no result: UUG fidelity)
CCCN1C[C@H](C)[C@H](OC)CN(C)C(=O)c2cc(NC(=O)C3CC3)ccc2OC[C@H]1C	none
O=C(C[C@H]1CC[C@H](NC(=O)C2CC2)[C@H](CO)O1)NCc1ccccc1Cl	none
COc1cccc(C(=O)Nc2ccc3c(c2)C(=O)N(C)C[C@H](OC)[C@H](C)CN(CCc2ccccc2)[C@H](C)CO3)c1	none (no result: UUG fidelity)
CCC(=O)N1C[C@@H](C)[C@H](OC)CN(C)C(=O)c2cc(NC(=O)Nc3cccc(F)c3)ccc2OC[C@@H]1C	SIRT5 block 15
COc1cccc(C(=O)Nc2ccc3c(c2)C(=O)N(C)C[C@@H](OC)[C@@H](C)CN(CCc2ccccc2)[C@@H](C)CO3)c1	SIRT5 block 15 (no result: UUG fidelity)
CCC(=O)N1C[C@H](C)[C@@H](OC)CN(C)C(=O)c2cc(NC(=O)Nc3cccc(F)c3)ccc2OC[C@@H]1C	none
CC(=O)N[C@@H]1CC[C@@H](CCNC(=O)Nc2ccc(C(F)(F)F)cc2)O[C@H]1CO	none
CCCNC(=O)N(C)C[C@@H]1Oc2cc(C#CC3CC3)ccc2S(=O)(=O)N([C@H](C)CO)C[C@H]1C	none
CCOc1cc(C2C3=C(CC(C)(C)CC3=O)N(CCCOC)C3=C2C(=O)CC(C)(C)C3)ccc1OC	MLL AF4-AF9 inh 29 (no result: E-sel inducer)
CC(C)CC#Cc1ccc2c(c1)O[C@@H](CN(C)C(=O)Cc1ccncc1)[C@@H](C)CN([C@@H](C)CO)S2(=O)=O	none
CCNC(=O)Nc1ccc2c(c1)C(=O)N(C)[C@H]1CC[C@H](CC(=O)NCc3cccc(F)c3)O[C@H]1CO2	none (no result: SIRT5 block, MLL AF4-AF9 inh, RAD52 inh)
Cc1ccc(S(=O)(=O)NC(=O)c2ccc(Br)o2)cc1	SIRT5 block 35
COc1ccc2c3c(n(C)c2c1)[C@@H](CO)N(C(=O)c1ccncc1)CC31CCN(S(C)(=O)=O)CC1	none (no result: RAD54 inh, UUG fidelity)
CN(C)CC#Cc1ccc([C@@H]2[C@H]3CN(C(=O)Nc4ccccc4F)CCCCN3[C@H]2CO)cc1	none
CN(C)CC#Cc1ccc([C@@H]2[C@@H](CO)N3CCCCN(C(=O)CN(C)C)C[C@@H]23)cc1	RAD52 inh 71
CN(C)CC#Cc1ccc([C@H]2[C@@H](CO)N3CCCCN(C(=O)CN(C)C)C[C@@H]23)cc1	none
CN(C)CC#Cc1ccc([C@@H]2[C@@H](CO)N3CCCCN(C(=O)Nc4ccccc4F)C[C@@H]23)cc1	RAD52 inh 54
Oc1ccc(-c2n[nH]c(C(F)(F)F)c2-c2ccccc2)c(O)c1	SIRT5 block 44 (no result: RAD54 inh, UUG fidelity)
Cc1cc(NC(=O)c2ccno2)no1	SIRT5 block 19
C[C@@H]1CN([C@H](C)CO)C(=O)Cc2cc(NC(=O)Cc3ccccc3)ccc2O[C@H]1CN(C)Cc1ccc(C(F)(F)F)cc1	none (no result: UUG fidelity)
O=C(C1CCC1)N1C[C@@H]2[C@H](c3ccccc31)[C@H](CO)N2C(=O)Nc1cccc(F)c1	MLL AF4-AF9 inh 35
O=C(c1ccncc1)N1C[C@@H]2[C@H](c3ccccc31)[C@H](CO)N2C(=O)Nc1cccc(F)c1	SIRT5 block 18
O=C(C1CCCC1)N1C[C@@H]2[C@H](c3ccccc31)[C@H](CO)N2C(=O)Nc1cccc(F)c1	none
O=C(C1CCCCC1)N1C[C@H]2[C@@H](c3ccccc31)[C@H](CO)N2C(=O)Cc1ccccn1	SIRT5 block 16
O=C(c1cccnc1)N1C[C@H]2[C@@H](c3ccccc31)[C@H](CO)N2C(=O)Nc1cccc(F)c1	none
C=CCn1c(=N)n(CC(=O)c2ccc(Br)s2)c2ccccc21	E-sel inducer 69
C/C(=N\NC(N)=O)c1ccc(-n2ccnc2)cc1	SIRT5 block 22
Nc1ccc(Nc2ccccc2)c(S(=O)(=O)O)c1	SIRT5 block 55
Cc1ccc(Nc2ccc(N)cc2S(=O)(=O)O)cc1	SIRT5 block 56 (no result: E-sel inducer)
